The test concerns the target human recombinant A3 adenosine receptor (Homo sapiens (Human), UniProt P0DMS8). As to the kind of experiment: Adenosine A3 receptor binding, displacement of [3H]NECA. Particulars: displacement of specific [3H]NECA binding, HEK cells; geometric mean. The protocol:
Membranes for radioligand binding experiments were prepared from fresh or frozen cells as described in Klotz et al., Naunyn-Schmiedeberg's Arch. […] The cell suspension was then homogenized in ice-cold hypotonic buffer (5 mM Tris/HCl, 2 mM EDTA, pH 7.4) and the homogenate was spun for 10 minutes (4° C.) at 1,000 g.
Nonspecific binding was determined in the presence of 100 μM R-PIA and 1 mM theophylline, respectively. For details see Klotz et al., Naunyn-Schmiedeberg's Arch.

Protein sequences, listed by entry. Tags and fused reporters are not part of them.
UniProt P0DMS8, whole entry: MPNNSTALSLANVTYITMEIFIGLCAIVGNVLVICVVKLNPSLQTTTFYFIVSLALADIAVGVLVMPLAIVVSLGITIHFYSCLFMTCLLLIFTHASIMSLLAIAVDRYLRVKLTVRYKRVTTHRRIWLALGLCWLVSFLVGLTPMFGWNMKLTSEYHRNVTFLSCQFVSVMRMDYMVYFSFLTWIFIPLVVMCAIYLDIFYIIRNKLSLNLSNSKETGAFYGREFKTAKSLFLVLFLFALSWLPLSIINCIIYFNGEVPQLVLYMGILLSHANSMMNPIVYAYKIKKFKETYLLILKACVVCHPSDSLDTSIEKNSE

Drawing on patent US8609833B2, “Purine derivatives as adenosine A1 receptor agonists and methods of use thereof” (Inotek Pharmaceuticals Corporation, priority 2004, dated 2013), this text covers Ki for 1 compound.

For `O=[N+]([O-])OC[C@H]1O[C@@H](n2cnc3c(NC4CCCC4)nc(Cl)nc32)[C@H](O)[C@@H]1O` [Compound 16], the Ki was determined as 513 nM.
